Target: T1, M-phase inducer phosphatase 2 (Homo sapiens, UniProt P30305)
T1 sequence (P30305 whole entry): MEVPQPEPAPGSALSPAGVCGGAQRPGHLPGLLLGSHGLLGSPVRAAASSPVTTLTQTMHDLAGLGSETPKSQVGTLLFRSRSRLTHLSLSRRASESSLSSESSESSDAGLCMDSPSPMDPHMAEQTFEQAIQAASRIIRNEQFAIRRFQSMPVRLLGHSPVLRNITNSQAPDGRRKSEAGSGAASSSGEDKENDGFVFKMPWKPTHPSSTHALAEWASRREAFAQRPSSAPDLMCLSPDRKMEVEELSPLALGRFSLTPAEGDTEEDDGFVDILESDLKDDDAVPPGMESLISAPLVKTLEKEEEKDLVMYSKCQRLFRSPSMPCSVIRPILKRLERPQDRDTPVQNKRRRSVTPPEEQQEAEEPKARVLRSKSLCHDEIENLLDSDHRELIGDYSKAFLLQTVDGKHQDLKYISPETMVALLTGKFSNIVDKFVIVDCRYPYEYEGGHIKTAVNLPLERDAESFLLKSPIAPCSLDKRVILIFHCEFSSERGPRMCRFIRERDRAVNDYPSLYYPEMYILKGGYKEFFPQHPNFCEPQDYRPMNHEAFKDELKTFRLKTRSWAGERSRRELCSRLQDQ

CC1=CC(=O)c2c(O)cccc2C1=O [PLUMBAGIN]
IC50: 3.1 µM
